Chains of the proteins cited; added tags and fusions are not shown. Lines headed by an entry give the natural chain unless they say otherwise; changes in a name come on top.
UniProt P51955: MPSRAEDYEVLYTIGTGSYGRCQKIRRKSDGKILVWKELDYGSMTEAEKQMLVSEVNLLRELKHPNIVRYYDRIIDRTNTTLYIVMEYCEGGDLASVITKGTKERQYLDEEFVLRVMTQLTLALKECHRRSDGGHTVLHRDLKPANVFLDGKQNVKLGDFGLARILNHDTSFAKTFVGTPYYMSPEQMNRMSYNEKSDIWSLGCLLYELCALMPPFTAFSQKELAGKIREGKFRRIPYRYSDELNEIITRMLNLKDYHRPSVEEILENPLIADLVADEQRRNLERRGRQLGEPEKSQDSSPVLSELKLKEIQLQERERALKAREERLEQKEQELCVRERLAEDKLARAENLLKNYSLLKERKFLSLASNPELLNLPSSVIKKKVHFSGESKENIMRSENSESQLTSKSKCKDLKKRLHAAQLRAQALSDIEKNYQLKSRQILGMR
UniProt Q9Y5S2: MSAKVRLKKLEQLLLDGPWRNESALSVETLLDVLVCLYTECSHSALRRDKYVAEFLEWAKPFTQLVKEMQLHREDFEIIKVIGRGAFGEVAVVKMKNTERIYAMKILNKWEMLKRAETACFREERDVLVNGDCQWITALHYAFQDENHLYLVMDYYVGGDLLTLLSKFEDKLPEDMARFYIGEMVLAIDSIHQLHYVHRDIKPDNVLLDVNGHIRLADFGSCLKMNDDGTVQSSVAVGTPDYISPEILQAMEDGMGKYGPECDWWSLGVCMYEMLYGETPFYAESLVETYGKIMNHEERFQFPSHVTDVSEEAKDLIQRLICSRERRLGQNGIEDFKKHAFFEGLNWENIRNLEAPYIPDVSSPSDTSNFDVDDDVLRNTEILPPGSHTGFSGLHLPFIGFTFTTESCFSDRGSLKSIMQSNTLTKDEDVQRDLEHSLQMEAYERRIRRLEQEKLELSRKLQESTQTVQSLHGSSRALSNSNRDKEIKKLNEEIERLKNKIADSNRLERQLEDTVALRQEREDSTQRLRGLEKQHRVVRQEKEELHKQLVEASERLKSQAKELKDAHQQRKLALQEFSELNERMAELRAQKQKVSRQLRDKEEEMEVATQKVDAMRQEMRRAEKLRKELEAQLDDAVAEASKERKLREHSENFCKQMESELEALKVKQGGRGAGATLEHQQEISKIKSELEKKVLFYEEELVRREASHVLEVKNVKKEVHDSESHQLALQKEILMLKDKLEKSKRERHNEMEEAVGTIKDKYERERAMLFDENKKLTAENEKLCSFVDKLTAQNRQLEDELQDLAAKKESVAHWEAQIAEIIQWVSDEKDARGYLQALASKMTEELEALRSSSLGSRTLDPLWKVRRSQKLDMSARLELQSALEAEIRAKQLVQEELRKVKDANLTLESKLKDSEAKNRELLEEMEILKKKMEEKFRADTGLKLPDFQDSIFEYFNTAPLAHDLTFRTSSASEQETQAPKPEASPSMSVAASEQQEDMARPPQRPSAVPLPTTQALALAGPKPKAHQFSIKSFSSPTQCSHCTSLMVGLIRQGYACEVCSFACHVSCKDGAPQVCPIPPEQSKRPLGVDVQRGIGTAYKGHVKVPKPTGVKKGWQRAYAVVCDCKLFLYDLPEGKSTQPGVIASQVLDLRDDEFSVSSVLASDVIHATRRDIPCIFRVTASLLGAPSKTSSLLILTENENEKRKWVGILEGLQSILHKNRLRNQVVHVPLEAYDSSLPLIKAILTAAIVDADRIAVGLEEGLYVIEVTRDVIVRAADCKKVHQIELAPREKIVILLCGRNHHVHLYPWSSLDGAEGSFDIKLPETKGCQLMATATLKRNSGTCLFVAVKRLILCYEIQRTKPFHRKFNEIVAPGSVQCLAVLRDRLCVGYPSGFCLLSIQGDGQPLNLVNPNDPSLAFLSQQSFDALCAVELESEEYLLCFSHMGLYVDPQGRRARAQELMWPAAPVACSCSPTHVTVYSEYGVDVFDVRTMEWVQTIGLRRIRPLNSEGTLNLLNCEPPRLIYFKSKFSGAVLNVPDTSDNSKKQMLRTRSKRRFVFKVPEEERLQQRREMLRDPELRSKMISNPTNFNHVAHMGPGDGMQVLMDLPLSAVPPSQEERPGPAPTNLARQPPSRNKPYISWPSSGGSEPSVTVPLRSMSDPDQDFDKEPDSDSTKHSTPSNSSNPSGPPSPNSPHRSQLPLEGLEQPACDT
UniProt O15111: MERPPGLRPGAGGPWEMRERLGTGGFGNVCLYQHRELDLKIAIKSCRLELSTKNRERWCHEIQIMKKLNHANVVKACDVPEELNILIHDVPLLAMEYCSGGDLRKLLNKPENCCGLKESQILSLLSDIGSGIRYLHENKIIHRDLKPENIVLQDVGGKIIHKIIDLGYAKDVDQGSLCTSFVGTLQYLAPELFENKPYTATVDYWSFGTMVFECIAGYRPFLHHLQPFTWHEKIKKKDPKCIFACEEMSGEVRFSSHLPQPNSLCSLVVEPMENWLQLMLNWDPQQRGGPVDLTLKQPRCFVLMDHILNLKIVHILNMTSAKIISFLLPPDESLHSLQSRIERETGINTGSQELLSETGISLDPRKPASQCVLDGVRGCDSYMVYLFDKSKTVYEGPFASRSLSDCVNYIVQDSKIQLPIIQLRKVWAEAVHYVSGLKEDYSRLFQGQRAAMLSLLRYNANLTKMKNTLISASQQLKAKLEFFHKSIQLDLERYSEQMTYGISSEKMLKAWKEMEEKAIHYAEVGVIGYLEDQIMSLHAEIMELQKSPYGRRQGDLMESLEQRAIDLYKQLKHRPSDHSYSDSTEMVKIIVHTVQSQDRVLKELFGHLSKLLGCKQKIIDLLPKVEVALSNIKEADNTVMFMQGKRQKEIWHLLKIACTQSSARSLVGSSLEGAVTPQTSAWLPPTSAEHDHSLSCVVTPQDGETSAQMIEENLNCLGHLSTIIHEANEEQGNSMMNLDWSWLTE
UniProt P54762: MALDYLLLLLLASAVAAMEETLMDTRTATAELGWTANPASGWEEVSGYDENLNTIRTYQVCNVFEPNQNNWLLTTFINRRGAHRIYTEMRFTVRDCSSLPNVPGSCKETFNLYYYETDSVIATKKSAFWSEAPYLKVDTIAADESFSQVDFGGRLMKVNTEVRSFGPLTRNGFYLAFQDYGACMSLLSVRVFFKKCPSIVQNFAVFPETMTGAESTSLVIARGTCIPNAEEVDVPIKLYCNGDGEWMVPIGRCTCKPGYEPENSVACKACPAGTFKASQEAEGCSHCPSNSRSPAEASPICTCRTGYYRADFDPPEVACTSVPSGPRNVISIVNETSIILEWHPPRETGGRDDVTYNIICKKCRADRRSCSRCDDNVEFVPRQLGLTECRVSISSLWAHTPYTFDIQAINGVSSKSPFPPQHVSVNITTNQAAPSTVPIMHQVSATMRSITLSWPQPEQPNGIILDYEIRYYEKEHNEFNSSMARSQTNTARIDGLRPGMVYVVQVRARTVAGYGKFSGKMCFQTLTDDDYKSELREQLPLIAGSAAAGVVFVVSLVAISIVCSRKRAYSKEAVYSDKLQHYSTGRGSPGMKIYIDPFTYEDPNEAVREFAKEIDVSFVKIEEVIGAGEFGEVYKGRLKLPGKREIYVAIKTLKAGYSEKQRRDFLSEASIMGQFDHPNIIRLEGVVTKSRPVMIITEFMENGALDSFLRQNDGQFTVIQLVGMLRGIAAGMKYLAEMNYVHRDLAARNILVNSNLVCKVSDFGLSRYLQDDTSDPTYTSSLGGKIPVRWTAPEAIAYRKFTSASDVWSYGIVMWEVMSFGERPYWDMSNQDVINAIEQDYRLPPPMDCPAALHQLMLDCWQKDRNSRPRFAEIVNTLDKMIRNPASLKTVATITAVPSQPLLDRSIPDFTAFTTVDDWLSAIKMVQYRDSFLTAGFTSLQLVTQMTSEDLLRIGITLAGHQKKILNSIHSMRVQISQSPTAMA

In the kinase profiling compilation of Christmann-Franck et al. (2016):

Experiments:
Assay in all cases: radiometric filter-binding kinase assay, Kinase HotSpot
Conditions in all cases: compound 0.5 µM; ATP 10 µM
NEK2 (human) = NEK2 (human) (UniProt P51955)
CDC42BPB (human) = CDC42BPB (human) (UniProt Q9Y5S2)
CHUK (human) = CHUK (human) (UniProt O15111)
EPHB1 (human) = EPHB1 (human) (UniProt P54762)

SMILES | residual activity (NEK2 (human)) [%] | residual activity (CDC42BPB (human)) [%] | residual activity (CHUK (human)) [%] | residual activity (EPHB1 (human)) [%]
COc1ccc(OC)c2c(=S)c3ccccc3[nH]c12 | 95 |  |  | 
O=C1NC(=O)C(c2cn(CCCO)c3ncccc23)=C1c1cnccn1 |  | 102 | 101 | 109
